The target of the test is T1, FimH (Escherichia coli, UniProt Q1R2J4).
T1 construct: endogenous in cells; host or cells: type 1 piliated UPEC bacteria
The test can be described thus: cell-based. Further details: species or system UPEC.

Amino acid sequences for entries named in this document (tags omitted).
UniProt Q1R2J4, entry or part of it: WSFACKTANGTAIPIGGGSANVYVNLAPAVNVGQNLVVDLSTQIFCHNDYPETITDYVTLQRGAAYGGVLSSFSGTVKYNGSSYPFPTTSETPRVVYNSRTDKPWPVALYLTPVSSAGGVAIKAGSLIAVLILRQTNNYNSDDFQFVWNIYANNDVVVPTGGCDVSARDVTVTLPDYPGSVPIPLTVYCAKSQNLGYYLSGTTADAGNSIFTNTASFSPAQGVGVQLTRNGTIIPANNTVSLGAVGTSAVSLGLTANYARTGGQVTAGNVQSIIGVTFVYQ

Molecules are shown by their SMILES.

In patent EP3492483A1, “COMPOUNDS AND METHODS FOR TREATING BACTERIAL INFECTIONS” (The Washington University, priority 2009, dated 2011) one finds EC50 data, which are given here for 2 compounds.

As to `CCCCO[C@H]1O[C@H](CO)[C@@H](O)[C@H](O)[C@@H]1O` [Butylαman, α-D-butylmannoside, reference compound], the EC50 was found to be 125 µM.
The result for `CC(=O)Nc1ccccc1OC1OC(CO)C(O)C(O)C1O` (centres unmarked) [Compound 3, N-[2-[3,4,5-trihydroxy-6-(hydroxymethyl)tetrahydropyran-2-yl]oxyphenyl]acetamide] reads 125 µM.
